We go through 63 molecules from PubChem BioAssay AID485364 (National Center for Advancing Translational Sciences (NCATS), 2010).

The list shows a part of the results, in another mix than the full data. Calls of active or inactive are those of the source. Calls follow the shape of the dose curve; as a rule, active = well fitted inhibition curve with a large enough effect; inconclusive = small, poorly fitted or top-dose-only effect; inactive = no such curve, though single readings can be large or run the other way.
% is scaled to controls: 0 for no effect and ±100 for the full control effect; potency is read from the fitted curve at half-maximal effect.

In the test the target is Schistosoma mansoni thioredoxin glutathione reductase (TGR) (UniProt Q962Y6). Kind of test: qHTS Assay for the Inhibitors of Schistosoma Mansoni Peroxiredoxins. Also: nearly all actives have a fitted effect of over 60% in size. The settings on record: purified TGR, DTNB reduction, TNB absorbance 405 nm; series mostly up to 114 µM; activity change, negative = inhibition: at the top concentration. The text has this:
Schistosomiasis is a major neglected tropical disease that currently affects over 200 million. It is caused by different species of flatworms, such as Schistosoma mansoni. Over the last century, drugs to treat the disease have evolved from potassium antimonyl tartrate, artemisinin, oxamniquine, to praziquantel, with praziquantel remaining the universally-used single drug of choice over the past three decades. However, transmission rates have changed little with praziquantel, and there is evidence for the development of drug resistant parasites. Because there is currently no suitable alternative therapy available, there is an urgent need to identify new targets and drugs for schistosomiasis treatment. Thioredoxin glutathione reductase (TGR), one uniquely positioned S. mansoni enzyme, has been identified as a major component of the worms' distinct and compressed antioxidant "firewall". TGR is a multifunctional enzyme that catalyzes the interconversion between reduced and oxidized forms of both glutathione (GSH) and thioredoxins, thus making it an attractive new antiparasitic target. Recently, a quantitative high-throughput screen of the NIH Molecular Libraries Small Molecule Repository (MLSMR, ~71K at the time of the screen in 2007) was performed using an assay that targeted both TGR and peroxiredoxin2 (Prx2, an H2O2-reducing enzymatic component of the S. mansoni redox "firewall") by following the decrease of NADPH fluorescence. […] Additional mechanistic link between exogenous NO donation and parasitic injury for the oxadiazole-2-oxide class of compounds was also expanded and better defined. Although the screen addressed both TGR and Prx2, the assay required post-screen target deconvolution for further characterization of the actives. In addition, the fluorescence assay was also subject to fluorescence interference from compound library members. We have developed a 1536-well-based kinetic HTS assay to address TGR alone. The assay followed the reduction of 5, 5'-dithiobis (2-nitrobenzoic acid) (DTNB) (Ellman's reagent) by NADPH and measured the increase in absorbance at 412 nm of the reaction product, TNB. […] This assay format can be used to screen the current MLSMR collection (with >300K compounds available) to find novel TGR inhibitors. Furoxan is a good choice to serve as a positive control in the primary HTS assay.
Three microliters of reagents (100 uM NADPH and 20 nM TGR or 100 uM NADPH as no-enzyme control) were dispensed into 1,536-well black clear-bottomed plates. Compounds (23 nL) were transferred via Kalypsys pin tool equipped with 1536-pin array (10 nL slotted pins, V&P Scientific, San Diego, CA). The plates were then be incubated for 15 min at room temperature, and 1 uL aliquot of 500 uM NADPH were added, immediately followed by a 1 uL aliquot of 15 mM DTNB to start the reaction. The plate was transferred to a ViewLux high-throughput CCD imager (Perkin-Elmer, Wellesley, MA) where kinetic measurements of the TNB absorbance were acquired using a 405 excitation filter. Throughout the screen, reagent bottles and all liquid lines were made light-tight to minimize reagent degradation. All screening operations were performed on a fully integrated robotic system (Kalypsys, San Diego, CA) containing one RX-130 and two RX-90 anthropomorphic robotic arms (Staubli, Duncan, SC). Library plates were screened starting from the lowest and proceeding to the highest concentration, and a "double-dipping" step of the highest concentration was required to access higher concentrations of compounds. Vehicle-only plates, with DMSO being pin-transferred to the entire column 5-48 compound area, were inserted uniformly at the beginning and the end of each library in order to monitor for and record any shifts in the background, which can be affected by reagent dispensers or loss in enzyme activity overtime. […]
Turning to `CC(C)/C=N\N=C(\N)N[N+](=O)[O-]`, the “activity change, negative = inhibition” value was inactive: -1.41%.

For `CN(C(=O)Cc1ccc(Cl)c(Cl)c1)[C@@H]1CCCC[C@H]1N1CCCC1`, the “activity change, negative = inhibition” value is inactive: -4.16%. Regarding `CC(C)C(=O)NC(Sc1ccccc1)C(Cl)(Cl)Cl` (stereo not drawn), the “activity change, negative = inhibition” value was inactive: 2.07%. The same measure, in the same setting: for `O=P(Nc1nccs1)(c1ccccc1)c1ccccc1` the value was inactive: 4.35%; for `c1nnnn1CCn1cnnn1`, inactive: -16.8%; for `CN(C)C1(CNC(=O)c2ccc(Cl)c(S(N)(=O)=O)c2)CCCCC1`, inactive: 1.01%. Still for that read-out and setting: for `C[C@H]1OP(=O)(Oc2ccccc2)[C@H](O)[C@H](O)[C@H]1N=[N+]=[N-]` (stereo partly drawn) the value was inactive: 1.5%. The same measure, in the same setting: for `O=P(Nc1nc2ccccc2s1)(c1ccccc1)c1ccccc1` the value was inactive: -6.36%; for `O=[N+]([O-])c1ncn(CCn2cnc([N+](=O)[O-])n2)n1`, inactive: -12.1%. `CC(=O)NC(SC(=S)N(C)C)C(Cl)(Cl)Cl` (stereo not drawn): the Potency is active: 25.1 µM. The same measure, in the same setting: as for `O=[As](O)(c1ccccc1)c1ccc(O)cc1`, the figure is active: 35.5 µM. Regarding `C(Cc1nn[nH]n1)Cc1nn[nH]n1`, the “activity change, negative = inhibition” value was inactive: -0.136%. The same measure, in the same setting: for `O=C(OC1CN2CCC1CC2)c1cccc(Cl)c1` (stereo not drawn) the value was inactive: -0.446%; for `O=C(NC1CCS(=O)(=O)C1)NP(=S)(Oc1ccccc1)Oc1ccccc1` (stereo not drawn), inactive: 0.398%. On to `Cc1ccc(NP(=O)(Oc2cccc(C)c2)Oc2cccc(C)c2)nc1`, for which the “activity change, negative = inhibition” value was inactive: 6.46%.

As for `c1ccc(-c2nn[nH]n2)c(-c2nn[nH]n2)c1`, the “activity change, negative = inhibition” value was inactive: 5.46%. The same measure, in the same setting: for `Cc1ccc(OP(=O)(Nc2ccccn2)Oc2ccc(C)cc2)cc1` the value was inactive: -1.49%. `COC(=O)c1cc2c(s1)N=C(c1ccccc1)N(C)P2(=O)N1CCOCC1` (stereo not drawn): the “activity change, negative = inhibition” value is inactive: -15.7%. On the same count and under the same terms, for `CCC(=O)N1C2C3N(C(=O)CC)C1C1N(C(=O)CC)C(C(N1C(=O)CC)N3C(=O)CC)N2C(=O)CC` the value was inactive: 5.26%; for `O=C(OC1CN2CCC1CC2)c1ccccc1` (stereo not drawn), inactive: -4.01%; for `CN(C)C(=O)Oc1noc2ccccc12`, inactive: 12.6%. With `Cc1ccccc1OP(=O)(Nc1ccccn1)Oc1ccccc1C`, the “activity change, negative = inhibition” value is inactive: 6.15%. The same measure, in the same setting: as for `CCOc1ccc(C2=NCC(CBr)S2)cc1` (stereo not drawn), the figure is inactive: 14.9%; as for `O=P1(Nc2nc3ccc(Cl)cc3s2)COc2ccccc2O1` (stereo not drawn), inactive: 22.1%; as for `CC(C)(C)C(=O)NC(Sc1ccccc1)C(Cl)(Cl)Cl` (stereo not drawn), inactive: -15.6%. On the same count and under the same terms, as for `CC(=O)c1ccc(N2CC2c2ccncc2)cc1` (stereo not drawn), the figure is inactive: 2.15%; as for `C[C@@H]1C=CCP(=O)(Oc2ccccc2)O1` (stereo partly drawn), inactive: -11.2%; as for `C[C@H]1OP(=O)(Oc2ccccc2)C[C@@H]2O[C@@H]21` (stereo partly drawn), inactive: 1.13%. Still for that read-out and setting: as for `Cc1ccccc1CN(C)C(=O)COC(=O)C(O)(c1ccccc1)c1ccccc1`, the figure is inactive: -3.49%; as for `CC(=O)Nc1ccc(Oc2c([N+](=O)[O-])cc([N+](=O)[O-])cc2[N+](=O)[O-])cc1`, inactive: -10.8%. `CC(=O)Nc1ccc([As](=O)(O)O)c(O)c1`: the Potency is active: 12.6 µM. As to `NC(=O)c1cc([N+](=O)[O-])cc([N+](=O)[O-])c1N`, the “activity change, negative = inhibition” value is inactive: -6.61%. The same measure, in the same setting: as for `Cc1ccc(N/C(=N/P(=O)(N2CCOCC2)N2CCOCC2)N2CCOCC2)cc1`, the figure is inactive: -0.588%; as for `CN(C(=O)Cc1ccc(Cl)c(Cl)c1)[C@H]1CCCC[C@H]1N1CCCC1`, inactive: -12.2%. Still for that read-out and setting: as for `Cc1ccc(OP(=O)(Nc2nccs2)Oc2ccc(C)cc2)cc1`, the figure is inactive: 8.71%; as for `COc1ccccc1OP(=O)(Nc1ccc(C)cn1)Oc1ccccc1OC`, inactive: 0%.

`Clc1ccc(Cl)c(NC2=NCC(CBr)S2)c1` (stereo not drawn): the Potency is active: 3.98 µM. Turning to `CN1CCCC(OC(=O)C(c2ccccc2)c2ccccc2)C1` (stereo not drawn), the “activity change, negative = inhibition” value is inactive: 0.0622%. Still for that read-out and setting: for `CC(C)CC(=O)NC(Sc1ccc(Cl)cc1)C(Cl)(Cl)Cl` (stereo not drawn) the value was inactive: -14.3%.

Consider `Nc1cc(N)c2nonc2c1[N+](=O)[O-]`, for which the Potency is active: 50.1 µM. Turning to `Oc1ccccc1CNc1ccccn1`, the “activity change, negative = inhibition” value was inactive: 13.8%. Consider `O=C(O)c1ccccc1[As](=O)(O)O`, for which the Potency was active: 1.41 µM. With `O=P(Nc1nc2ccc(Cl)cc2s1)(c1ccccc1)c1ccccc1`, the “activity change, negative = inhibition” value is inactive: 18.7%.

With `Cc1ccc(NP(=O)(Oc2ccccc2F)Oc2ccccc2F)nc1`, the “activity change, negative = inhibition” value was inactive: 5.88%.

Consider `CCOP(=O)(Nc1ccccc1)OCC`, for which the Potency entry is “inactive”. For `Cc1cc(SC(NC(=O)c2ccc(F)cc2)C(Cl)(Cl)Cl)ncn1` (stereo not drawn), the “activity change, negative = inhibition” value is inactive: -33.9%.

As for `O=[N+]([O-])c1cc([N+](=O)[O-])c(CCN2CCOCC2)c([N+](=O)[O-])c1`, the Potency was active: 11.2 µM. For `CCN(N=Nc1nonc1N)c1nonc1N`, the “activity change, negative = inhibition” value was inactive: 6.18%. Consider `Nc1cccc2ccc([As](=O)(O)O)cc12`, for which the Potency is active: 39.8 µM.

As to `O=C(Nc1cc([As](=O)(O)O)ccc1O)c1ccccc1`, the Potency was active: 6.31 µM. Turning to `CC(C)(C)C(=O)NC(Sc1ccncn1)C(Cl)(Cl)Cl` (stereo not drawn), the Potency was active: 3.16 µM. For the molecule `O=[N+]([O-])c1ncn(CCn2ncnc2[N+](=O)[O-])n1`, the “activity change, negative = inhibition” value is inactive: 0%. With `O=[N+]([O-])c1cccc(NC2=NCC(CBr)S2)c1` (stereo not drawn), the Potency is active: 22.4 µM. `COc1ccc(C2=NCC(CBr)S2)cc1` (stereo not drawn): the “activity change, negative = inhibition” value is inactive: 41.5%. Same read-out and setting: as for `O=[N+]([O-])c1cccc2n[nH]nc12`, the figure is inactive: -12.3%; as for `CC(=O)N1C2C3N(C(C)=O)C1C1N(C(C)=O)C(C(N1C(C)=O)N3C(C)=O)N2C(C)=O`, inactive: -19.3%. On to `CCc1nc2c(n1)c1c(non1O)c1c2no[n+]1[O-]`, for which the Potency is active: 15.8 µM. The same measure, in the same setting: for `O=[N+]([O-])c1cc([N+](=O)[O-])c(CCNc2ccccc2)c([N+](=O)[O-])c1` the value was active: 2.51 µM.

On to `Cc1ccc(NP(=O)(Oc2ccccc2)Oc2ccccc2)nc1`, for which the “activity change, negative = inhibition” value is inactive: 1.2%. For `Nc1ccc([As](=O)(O)c2ccc(N)cc2)cc1`, the “activity change, negative = inhibition” value was inactive: 1.15%. Same read-out and setting: as for `CCN(/C(=N/P(=O)(N1CCOCC1)N1CCOCC1)N1CCOCC1)c1ccc(OC)cc1`, the figure is inactive: 12.7%; as for `CN(C)C(=O)OCCc1n(C)cc[n+]1C`, inactive: -19.4%. Same read-out and setting: for `CC1CCN(C(=O)Oc2c(Cl)cc(Cl)c3cccnc23)CC1` the value was inactive: 19%.
